These are literature values, as cited in US5952189A (priority 1997, dated 1999).

In the data set the test system is serine protease in T lymphocyte apoptosis. The settings on record: Sarin et al. 1993; cited from earlier work.

In the case of `O=S(=O)(F)Cc1ccccc1` [PMSF, phenylmethylsulfonylfluoride], the “Inhibition of serine protease in T lymphocyte apoptosis” value is on record as “inhibited”.
